Binding of CDR-mutated scFvs to a peptide of the spike HR2 region

Data: MIT Lincoln Laboratory AlphaSeq set, Engelhart et al. 2022, doi:10.1038/s41597-022-01779-4, as distributed in FLAb.

Binding partner: SARS-CoV-2 spike HR2 peptide, sequence PDVDLGDISGINAS.

Ab-14 is the parent antibody, in scFv form: VH, then a 15-residue (Gly4Ser)3 linker, then VL. The light chain is unchanged in all variants.
VH: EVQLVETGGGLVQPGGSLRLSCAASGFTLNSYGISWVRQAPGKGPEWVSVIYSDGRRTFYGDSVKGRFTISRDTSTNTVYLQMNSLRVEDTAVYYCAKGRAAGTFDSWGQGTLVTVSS
VL: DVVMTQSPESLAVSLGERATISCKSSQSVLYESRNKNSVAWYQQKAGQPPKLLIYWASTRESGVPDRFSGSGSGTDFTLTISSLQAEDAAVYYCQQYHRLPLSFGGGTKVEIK

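The starting antibody came from a phage panning campaign against this peptide. The library (AAYL49) carries one to three amino acid substitutions per variant, with no insertions or deletions. In AlphaSeq, yeast of one mating type display the scFv and yeast of the other type display the target. After mating in shaken culture at 30 °C for 16 h, diploids were selected and their barcode pairs sequenced. The ratio of observed to expected reads was calibrated, replicate by replicate, on BCL2-family standards whose Kd was known from biolayer interferometry. Each pool was mated in three replicate cultures.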

Each variant is given by its three heavy chain CDRs, as the data file delimits them; those of the parent are GFTLNSYGIS, VIYSDGRRTFYGDSVK, GRAAGTFDS.
Values are log10 of the apparent Kd in nM; lower means stronger binding.
Replicates are averaged; those with no signal do not enter the mean.
An entry "n.d." has no value in the source: the pair was not observed among the diploids in that replicate. This suggests poor binding but is not conclusive.
As a blank, each scFv also met three strains without target: over library AAYL49, 15% of these pairings were detected, typically at 4.06 and seldom below 2.83. Also given: how often the same scFv was detected with the empty control strains, with their mean in brackets.
Parent in this assay: reference entry 0.65, copy in this library 4.11 (one replicate of three).

CDR-H1 | CDR-H2 | CDR-H3 | replicates, log10 nM | mean log10 Kd (nM) | control signals
GFTENSFGIS | VIYSDGRRTFYGDCVK | GRAAGTFDS | n.d. / n.d. / n.d. | n.d. | 3/9 (4.05)
GFTLNSYGIS | VIYSDIRRTFYGDSNK | GRRAGTFDS | n.d. / n.d. / n.d. | n.d. | 1/9 (3.38)
GATLNSYGIS | VIYSDGRRTFYMDPVK | GRAAGTFDS | n.d. / 3.39 / n.d. | 3.39 | 0/9
GFTLNSYGIS | VIYSDGRRTFYGDCVK | GEAAGTFDS | n.d. / n.d. / n.d. | n.d. | 0/9
GFTLNSYGIS | VIYSDGRFTFYGDSIK | GRAAGTFDS | n.d. / n.d. / 2.77 | 2.77 | 0/9
WFTLNSYGIS | KIYSDGRRTFYGDSVK | GAAAGTFDS | n.d. / n.d. / n.d. | n.d. | 2/9 (4.51)
GFTLNSYGIS | RIYSDGCRTFYGDSTK | GRAAGTFDS | n.d. / n.d. / n.d. | n.d. | 2/9 (4.34)
PFTLNSYGIS | VIYSDGRRTFYGDSVK | GRNAGWFDS | n.d. / 5.32 / n.d. | 5.32 | 2/9 (4.69)
GFTLNSYGIS | VIYPDGRRTFYGDSTK | GRHAGTFDS | n.d. / n.d. / n.d. | n.d. | 1/9 (2.94)
GWTLNSYGIS | VIYSMGRRTFYGDSLK | GRAAGTFDS | n.d. / n.d. / n.d. | n.d. | 0/9
GFTLNSYGIE | VIYSDGRRQFYGDCVK | GRAAGTFDS | n.d. / n.d. / n.d. | n.d. | 0/9
GFHLNSYGIS | VIYSDGRRTDIGDSVK | GRAAGTFDS | n.d. / n.d. / n.d. | n.d. | 1/9 (4.15)
GFTLNSYGKS | VAYSDGRRTFYGDSVK | GRACGTFDS | n.d. / n.d. / n.d. | n.d. | 2/9 (3.42)
PFTLNSYGIS | VIYSDGRRTFYCTSVK | GRAAGTFDS | n.d. / n.d. / n.d. | n.d. | 1/9 (5.53)
MFTLGSYGIS | VIYSDGRRTFYGDSVK | GRAAGTFDS | n.d. / 4.02 / n.d. | 4.02 | 0/9
GFTLNVYGIS | VIYSDGRRTFYGDSVK | GRAWGTFDS | 1.94 / 2.14 / 1.66 | 1.91 | 1/9 (3.59)
GFTLNSYGIS | VIYSDKLRTFYGDSVK | ERAAGTFDS | 4.65 / n.d. / n.d. | 4.65 | 0/9
GFTLNSYGIS | VIYSDGRRTFYHDSVK | GRAAGTFAS | n.d. / 2.53 / n.d. | 2.53 | 0/9
GFTLNEYGIS | VIYSDGRRTFYGDSVK | GRAAGTYDS | 0.48 / 0.71 / 0.63 | 0.61 | 2/9 (4.29)
GFTLNSYGIS | VIYSSGRRTFYGDSVK | QRAAGTFDS | 3.39 / n.d. / n.d. | 3.39 | 0/9
LFTLNSYGIS | VIHSDGRRTFTGDSVK | GRAAGTFDS | n.d. / n.d. / n.d. | n.d. | 2/9 (4.12)
GFTLNSYGIA | VIYSDGNRTFYGDSVL | GRAAGTFDS | n.d. / n.d. / 3.92 | 3.92 | 3/9 (4.87)
GFTLNSYGIW | VIYSDGRRTFYGDSVK | GKAAGTKDS | n.d. / n.d. / n.d. | n.d. | 0/9
GFTLNSYGIQ | VIYSWGRRTFYGDSVK | GRAAGEFDS | 3.70 / 4.27 / n.d. | 3.98 | 0/9
GFTLNSYGIS | VMYSDGRRTFYGDSVW | GRAAGTFDS | 3.74 / 3.02 / 2.29 | 3.02 | 0/9
GFTLNSYGIS | VIYSHGRSTFYGDSVK | GRAAGTFDS | n.d. / n.d. / n.d. | n.d. | 2/9 (3.69)
GFTLNSYGIS | VIYSDGRRVFYGDSVK | GRAAITFDS | n.d. / n.d. / n.d. | n.d. | 0/9
GFTLNSYGIS | SIYSDGRRTNYGDSVK | GRQAGTFDS | 3.62 / 3.63 / 4.21 | 3.82 | 4/9 (3.69)
GFTLNSVGIS | VCYSDGRRTFYGDSVK | GRAAITFDS | n.d. / n.d. / n.d. | n.d. | 0/9
TFTLNSYGIS | VIYSMGRRTFYGDSVA | GRAAGTFDS | n.d. / n.d. / n.d. | n.d. | 3/9 (4.26)
GFTLNSYGIS | VIYSQGRRTFYGDSVK | CRAHGTFDS | 3.92 / 3.29 / n.d. | 3.61 | 2/9 (3.86)
GFTLNSYFIS | VIYSDGRRTFGDDSVK | GRAAGTFDS | 3.38 / n.d. / 4.54 | 3.96 | 3/9 (4.20)
GFTNNSYGIS | VIYSDGRRTFRGDSVK | GRAAKTFDS | n.d. / n.d. / n.d. | n.d. | 2/9 (3.41)
GQTLNSYGIS | DIYSDGRRTFYGDSVK | GRAAGTEDS | n.d. / n.d. / n.d. | n.d. | 2/9 (4.21)
GFTLNSLGIS | VIYSDGRRTFYGDSVK | GRARGTFDS | 3.72 / n.d. / n.d. | 3.72 | 1/9 (3.94)
GFTLNSYGIS | VIYSWGRRTFYGDVVK | GRAAGTFDS | n.d. / n.d. / 3.36 | 3.36 | 0/9
GFTLNSYTIS | VIYSDGRPTFYDDSVK | GRAAGTFDS | n.d. / n.d. / 4.06 | 4.06 | 0/9
GYTLNSYGIS | VIYSDGRRTFYGDSVK | GRAAGTFDV | 2.46 / 1.60 / 2.44 | 2.17 | 0/9
SFTLNSYGIS | VIYSWGRRTFYGDSGK | GRAAGTFDS | n.d. / n.d. / n.d. | n.d. | 1/9 (3.42)
GFTLNSYAIS | VIYSDGRRTFYGDSYK | GRAAGTFDS | n.d. / n.d. / n.d. | n.d. | 1/9 (2.86)
GFTLNSYGIS | VIYSDEHRTFYGDHVK | GRAAGTFDS | n.d. / n.d. / n.d. | n.d. | 2/9 (3.80)
GFTLNSYGIS | VIYSEGRRTFYGDSVK | GRAWGTFDH | n.d. / 4.07 / n.d. | 4.07 | 0/9
GFTLNSAGIS | VICSDGRRTFYGDSVK | PRAAGTFDS | n.d. / 4.47 / 6.19 | 5.33 | 2/9 (4.25)

Again, the first 5 entries without any signal:

CDR-H1	CDR-H2	CDR-H3	replicates, log10 nM	mean log10 Kd (nM)	control signals
GFTENSFGIS	VIYSDGRRTFYGDCVK	GRAAGTFDS	n.d. / n.d. / n.d.	n.d.	3/9 (4.05)
GFTLNSYGIS	VIYSDIRRTFYGDSNK	GRRAGTFDS	n.d. / n.d. / n.d.	n.d.	1/9 (3.38)
GFTLNSYGIS	VIYSDGRRTFYGDCVK	GEAAGTFDS	n.d. / n.d. / n.d.	n.d.	0/9
WFTLNSYGIS	KIYSDGRRTFYGDSVK	GAAAGTFDS	n.d. / n.d. / n.d.	n.d.	2/9 (4.51)
GFTLNSYGIS	RIYSDGCRTFYGDSTK	GRAAGTFDS	n.d. / n.d. / n.d.	n.d.	2/9 (4.34)